By UniProt entry, the sequences of proteins in these tests, tags left out. Where a name states a change or a piece, a line headed by the entry shows the natural chain unless it says otherwise.
UniProt P28074: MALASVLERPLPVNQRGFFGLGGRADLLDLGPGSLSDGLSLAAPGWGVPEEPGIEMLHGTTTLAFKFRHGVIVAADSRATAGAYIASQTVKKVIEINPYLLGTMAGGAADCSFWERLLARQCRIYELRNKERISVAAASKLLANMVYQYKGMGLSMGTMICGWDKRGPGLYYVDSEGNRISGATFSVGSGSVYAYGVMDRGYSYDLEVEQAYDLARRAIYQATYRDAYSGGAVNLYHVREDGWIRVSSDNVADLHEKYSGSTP

In ChEMBL document CHEMBL4477237, “Structure-Based Design of β5c Selective Inhibitors of Human Constitutive Proteasomes” (J Med Chem, 2016):

Experiments:
[1] = biological target: Proteasome subunit beta type-8 (β5i, LMP7) (Homo sapiens) (UniProt P28062); experiment: Inhibition of catalytic activity of immunoproteasome 20s subunit beta5 in human Raji cells incubated for 1 hr by BODIPY(TMR)-NC-005-VS probe based competitive activity based protein profiling assay
[2] = biological target: Proteasome Macropain subunit MB1 (Homo sapiens, UniProt P28074); experiment: Inhibition of catalytic activity of constitutive proteasome 20s subunit beta5 in human Raji cells incubated for 1 hr by BODIPY(TMR)-NC-005-VS probe based competitive activity based protein profiling assay; assay type: cell-based

- pIC50(app) [1]: 8.26
- IC50 [2]: 2.1 nM
- pIC50(app) [2]: 8.67
Structure (SMILES): CC(C)C[C@H](NC(=O)[C@H](Cc1ccccc1)NC(=O)[C@H](Cc1ccccc1)NC(=O)[C@H](Cc1ccccc1)N=[N+]=[N-])C(=O)[C@@]1(C)CO1
